# Tests used:
# By UniProt entry, the sequences of proteins in these tests, tags left out.
# UniProt P0DMS8, whole entry: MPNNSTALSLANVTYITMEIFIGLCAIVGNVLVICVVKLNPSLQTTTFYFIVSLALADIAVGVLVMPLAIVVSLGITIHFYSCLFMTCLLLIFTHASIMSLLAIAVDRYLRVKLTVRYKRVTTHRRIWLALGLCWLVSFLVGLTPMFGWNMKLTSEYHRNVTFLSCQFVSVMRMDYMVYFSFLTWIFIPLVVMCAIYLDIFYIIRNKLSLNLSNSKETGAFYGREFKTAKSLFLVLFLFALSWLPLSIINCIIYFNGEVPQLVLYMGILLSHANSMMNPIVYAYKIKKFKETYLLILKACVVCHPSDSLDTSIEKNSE
# UniProt P30542, whole entry: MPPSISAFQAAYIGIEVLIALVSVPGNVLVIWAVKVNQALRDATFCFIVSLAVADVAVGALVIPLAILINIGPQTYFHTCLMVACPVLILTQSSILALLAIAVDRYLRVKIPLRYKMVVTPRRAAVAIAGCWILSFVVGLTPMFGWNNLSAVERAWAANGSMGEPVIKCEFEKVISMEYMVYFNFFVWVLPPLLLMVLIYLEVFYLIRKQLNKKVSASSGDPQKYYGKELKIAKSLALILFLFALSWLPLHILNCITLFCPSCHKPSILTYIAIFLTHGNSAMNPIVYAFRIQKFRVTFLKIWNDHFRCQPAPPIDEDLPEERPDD
# [1] = target: human recombinant A3 adenosine receptor (Homo sapiens (Human), UniProt P0DMS8); experiment: Adenosine A3 receptor binding, displacement of [3H]NECA; details: read-out: Ki(A3); displacement of specific [3H]NECA binding, HEK cells; geometric mean; tested form: Na salt
# [2] = target: human recombinant A1 adenosine receptor (Homo sapiens (Human), UniProt P30542); experiment: Adenosine A1 receptor binding, displacement of [3H]CCPA; details: versus human A2A and A3 receptors, Table 1; tested form: Na salt
# [3] = target: human recombinant A2A adenosine receptor (Homo sapiens (Human), UniProt P29274); experiment: Adenosine A2A receptor binding, displacement of [3H]NECA; details: read-out: Ki(A2A); displacement of specific [3H]NECA binding, CHO cells; geometric mean; tested form: Na salt
structure (smiles),measurement,setting,value
O=S(=O)(O)OC[C@H]1O[C@@H](n2cnc3c(NC4CCCC4)ncnc32)[C@H](O)[C@@H]1O,Ki,[1],1.02 µM
same,selectivity for the adenosine A1 receptor,[2],selective for the adenosine A1 receptor
same,Ki,[3],9.11 µM
